Measured values reported in patent US6902933B2, “Surface transfection and expression procedure” (Regents of the University of Michigan, priority 2000, dated 2005).

Amino acid sequences for entries named in this document (tags omitted). A change or cut given only in a name is not applied to a line headed by its entry.
UniProt Q01726: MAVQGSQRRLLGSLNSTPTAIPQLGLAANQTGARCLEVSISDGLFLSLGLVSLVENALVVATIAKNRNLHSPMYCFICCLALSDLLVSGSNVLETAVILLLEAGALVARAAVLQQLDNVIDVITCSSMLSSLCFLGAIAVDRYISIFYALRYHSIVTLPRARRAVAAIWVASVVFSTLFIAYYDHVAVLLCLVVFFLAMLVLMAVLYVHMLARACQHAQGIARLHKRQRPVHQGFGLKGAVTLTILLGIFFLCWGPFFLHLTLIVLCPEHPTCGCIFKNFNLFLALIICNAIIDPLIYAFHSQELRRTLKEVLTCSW

Molecular target: human MC1R (Homo sapiens, UniProt Q01726)
Assay: hMCR1-mediated activation of transcription factors by αMSH, luciferase reporter vectors
Conditions: αMSH 10^−7M, 6 hours; pCRE-, pAP1-, pAP1 (PMA)-Luciferase and pTal-Luciferase; FIG. 9

αMSH
luciferase activity fold induction versus untreated transfected cells: specificity of αMSH for hMCR1-mediated activation of transcription factors
